The values that follow are results of earlier work, collected in patent publication US10814115B2, “Microneedle devices and uses thereof” (MASSACHUSETTS INSTITUTE OF TECHNOLOGY, priority 2011, dated 2020).

The conditions of the series: cell wraps over r4-r6: Onset of hypoglycemia, can treat with glucose; cited from earlier work.

For the substance insulin aspart, the “Known Toxic Levels (in words)” value is given as “Onset of”.
